Experimental findings from patent US8946287B2, “Chemotherapeutic flavonoids, and syntheses thereof” (Purdue Research Foundation, priority 2006, dated 2015) are described below.

By UniProt entry, the sequences of proteins in these tests, tags left out. Where a name states a change or a piece, a line headed by the entry shows the natural chain unless it says otherwise.
UniProt P11511: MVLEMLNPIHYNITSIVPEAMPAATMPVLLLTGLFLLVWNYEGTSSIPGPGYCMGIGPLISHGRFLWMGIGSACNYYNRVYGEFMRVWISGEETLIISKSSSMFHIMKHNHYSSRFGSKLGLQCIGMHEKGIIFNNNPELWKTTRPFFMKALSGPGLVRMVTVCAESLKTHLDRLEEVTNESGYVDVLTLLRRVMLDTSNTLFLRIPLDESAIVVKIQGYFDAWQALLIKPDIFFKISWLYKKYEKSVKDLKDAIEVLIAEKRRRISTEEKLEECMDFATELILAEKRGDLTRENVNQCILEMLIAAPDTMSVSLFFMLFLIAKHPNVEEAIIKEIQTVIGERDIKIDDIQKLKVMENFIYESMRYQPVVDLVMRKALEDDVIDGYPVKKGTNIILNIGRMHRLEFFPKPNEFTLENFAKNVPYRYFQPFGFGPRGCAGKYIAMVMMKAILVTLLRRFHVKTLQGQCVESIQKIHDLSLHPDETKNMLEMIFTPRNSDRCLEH

By IC50 is commonly meant the concentration that gives 50% inhibition. Read a low IC50 as inhibition by little substance.

For this test, the target named is aromatase (CYP19, BD Biosciences) (Homo sapiens, UniProt P11511). Description: Assay for inhibition of aromatase activity (fluorescence, dibenzylfluorescein).

In the case of `CC(C)=CCc1cc(C2CC(=O)c3ccc(O)cc3O2)ccc1O` (racemic) [8b, 7-Hydroxy-2-(4-hydroxy-3-(3-methylbut-2-enyl)phenyl)chroman-4-one], the IC50 was 40.9 ± 11.3 µM.
